Values quoted from earlier work in patent publication US20240024337A1, “INTERACTION OF SARS-COV-2 PROTEINS WITH MOLECULAR AND […] […] HOST CELLS AND FORMULATIONS TO TREAT COVID-19” (AKSEERA PHARMA CORP., priority 2020, published 2024).

Tested on: mouse forebrain tissues
Conditions: 100 μM; oxygen-glucose deprivation

SMILES: C=C(C)[C@@H]1CCC(C)=C[C@H]1c1c(O)cc(CCCCC)cc1O [Cannabidiol, 2-[(1R,6R)-3-Methyl-6-(1-methylethenyl)-2-cyclohexen-1-yl]-5-pentyl-1,3-benzenediol]
- attenuation of caspase 9 activation: ~50%
